Values quoted from earlier work in article PMC12154458, “High-Throughput Screens of Repurposing Hub and DOS Chemical Libraries Reveal Compounds with Novel and Potent Inhibitory Activity Against the Essential Non-Neuronal Acetylcholinesterase of Schistosoma mansoni (SmTAChE)” (International Journal of Molecular Sciences, 2025).

Protein sequences, listed by entry. Tags and fused reporters are not part of them. Residues count along the entry.
UniProt P22303, 32-614 limits assumed: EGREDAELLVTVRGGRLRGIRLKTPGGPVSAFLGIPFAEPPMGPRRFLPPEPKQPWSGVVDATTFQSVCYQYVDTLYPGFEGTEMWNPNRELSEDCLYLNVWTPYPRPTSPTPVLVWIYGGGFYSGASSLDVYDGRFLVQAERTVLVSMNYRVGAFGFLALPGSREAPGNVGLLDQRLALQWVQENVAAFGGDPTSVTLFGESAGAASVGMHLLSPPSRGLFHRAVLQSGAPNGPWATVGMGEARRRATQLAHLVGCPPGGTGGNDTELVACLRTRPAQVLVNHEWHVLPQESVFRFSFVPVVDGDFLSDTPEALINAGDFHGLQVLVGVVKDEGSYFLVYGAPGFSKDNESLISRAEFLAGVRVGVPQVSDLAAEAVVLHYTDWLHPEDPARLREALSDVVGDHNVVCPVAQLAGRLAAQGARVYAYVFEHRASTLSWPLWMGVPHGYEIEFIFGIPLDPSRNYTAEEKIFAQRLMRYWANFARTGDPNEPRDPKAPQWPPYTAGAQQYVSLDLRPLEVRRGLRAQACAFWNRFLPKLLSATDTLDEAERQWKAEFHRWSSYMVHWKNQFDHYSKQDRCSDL

Biological target: recombinant human acetylcholinesterase, rHsAChE (Homo sapiens, UniProt P22303)
Conditions: read-out: IC50 human AChE; preliminary screening of Broad Institute Validation Library; cited from earlier work

SMILES: COc1cc(CNCCc2ccccc2F)ccc1OCC(=O)N1CCCCC1
- IC50: 151 µM
